Results on one compound are retold here after publication PMC7795340, “First Synthesis of Racemic Trans Propargylamino-Donepezil, a Pleiotrope Agent Able to Both Inhibit AChE and MAO-B, with Potential Interest against Alzheimer’s Disease” (Molecules, 2020).

Chains of the proteins cited; added tags and fusions are not shown.
UniProt P21397, whole entry: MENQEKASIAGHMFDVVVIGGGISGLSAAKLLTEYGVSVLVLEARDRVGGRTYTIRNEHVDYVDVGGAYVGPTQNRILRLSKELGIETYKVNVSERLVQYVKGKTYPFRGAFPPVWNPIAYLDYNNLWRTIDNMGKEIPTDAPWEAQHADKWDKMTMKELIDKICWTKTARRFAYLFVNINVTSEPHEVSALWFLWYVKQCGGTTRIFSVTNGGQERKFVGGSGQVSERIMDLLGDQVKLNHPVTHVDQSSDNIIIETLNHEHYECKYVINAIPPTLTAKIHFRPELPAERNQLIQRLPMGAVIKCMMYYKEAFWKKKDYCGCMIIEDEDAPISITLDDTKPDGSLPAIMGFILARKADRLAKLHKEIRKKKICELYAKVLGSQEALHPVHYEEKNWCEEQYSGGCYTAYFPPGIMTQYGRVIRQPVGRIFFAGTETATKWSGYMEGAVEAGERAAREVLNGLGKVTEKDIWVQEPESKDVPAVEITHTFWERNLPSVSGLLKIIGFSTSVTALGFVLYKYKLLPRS

As a reminder, the IC50 is the concentration that gives 50% inhibition.

The target of this test is T1, human recombinant MAO-A (Homo sapiens, UniProt P21397).
T1 construct: purchased Sigma Aldrich; host or cells: baculovirus infected insect cells (microsomes)
In words: (h)MAO-A inhibition, kynuramine fluorescence assay. Type of test: biochemical. The settings on record: read-out: (h)MAO-A IC50 (µM) (n = 3), mean ± SEM, kynuramine 50 µM. How it is done: Inhibition of human recombinant monoamine oxidases A (250 U/mg) and B (59 U/mg; microsomes from baculovirus infected insect cells; Sigma Aldrich) was determined as already described, measuring the fluorescence of 4-hydroxyquinoline (exc. 310 nm; em. 400 nm) produced by MAOs in the oxidative deamination of substrate kynuramine. […] Assays were performed in triplicate during three independent tests, in 96-well black polystyrene plates (Greiner Bio-One, Kremsmünster, Austria) using an Infinite M1000 Pro plate reader (Tecan, Cernusco s.N., Italy). […]; GraphPad Software, San Diego, CA, USA).

For the compound `C#CCN(C)Cc1ccccc1` [Pargiline, pargiline, reference compound], the IC50 is 10.9 ± 0.6 µM.
